Test results reported in patent US20220041538A1, “CA[…] ACID AND SALTS THEREOF” (EMERALD HEALTH PHARMACEUTICALS INC, priority 2018, published 2022).

Columns and labels:
[1] = tested on: striatum of 3NP-intoxicated mice; experiment: Histological analysis of striatum in 3NP model (Nissl staining, Iba-1 immunostaining); type: in vivo; details: oral and intraperitoneal; tested form: sodium salt
Description: Loss of neurons in the striatum (Nissl staining) and Iba1 (microglia marker) were detected by immunostaining in the coronal sections of striatum of mice treated with vehicle, 3NP+ vehicle, 3NP+ compound I (oral and intraperitoneal). Quantification of Nissl staining (A) and Iba1 (B) positive cells in the mouse striatum. Total average number of neurons and microglia is shown.
Quantification of Nissl staining (A) and Iba1 (B) positive cells in the mouse striatum. Total average number of neurons and microglia is shown.
Brains from 3NP model were fixed in 4% paraformaldehyde and 5-μm-thick sections for Nissl staining and immunohistochemical analysis of Iba-1, a marker of microglial cells. For immunohistochemistry sections were incubated overnight at 4° C. with monoclonal anti-mouse Iba-1 antibody (Millipore, Mass., USA) used at 1/50 dilution. After incubation with the corresponding primary antibody, sections were washed in 0.1 M PBS and incubated O/N at 4° C. with goat anti-mouse (Millipore, Mass., USA) secondary antibody. […] Negative control sections were obtained using the same protocol with omission of the primary antibody. All sections for each immunohistochemical procedure were processed at the same time and under the same conditions. […]

6-OHDA challenged mice = experiment: 6-OHDA murine model of Parkinson's disease (pole test, cylinder rearing test); type: in vivo; details: oral or intraperitoneal, 14 days; tested form: sodium salt
Description: C57BL/6 mice were unilaterally injected intracerebroventricullarly with 6-hydroxydopamine (6-OHDA) or saline (control mice) and subjected to chronic intraperitoneal treatment with cannabigerol quinone acid (1) (oral […] in sesame oil, and intraperitoneal 10 mg/Kg in Tween80/Saline ( 1/16)) or vehicle (14 days), starting 16 h after the 6-OHDA injection. SHAM group corresponds to mice subjected to the surgical manipulation without injection of 6-OHDA. Motor coordination was evaluated by rotarod performance and motor activity was evaluated using a computer-aided actimeter. A: pole test results after oral treatment, B: cylinder rearing test results after oral treatment, C: pole test results after intraperitoneal treatment, D: cylinder rearing test results after intraperitoneal treatment.
Motor coordination was evaluated by rotarod performance and motor activity was evaluated using a computer-aided actimeter. A: pole test results after oral treatment, B: cylinder rearing test results after oral treatment, C: pole test results after intraperitoneal treatment, D: cylinder rearing test results after intraperitoneal treatment.
C57BL/6 mice pretreated intracerebroventricularly were anesthetized with an intraperitoneal injection of 200 mg/Kg of 2,2,2-tribromoethanol (Sigma-Aldrich) and placed in a stereotaxic frame with a mouse adapter (David Kopf Instruments, Tujunga, Calif., USA). […]
The pole test was used to detect bradykinesia and motor and cylinder rearing test to evaluate sensory-motor deficits in PD mice. For Pole test mice were placed head-upward on the top of a vertical rough-surfaced pole (diameter 8 mm; height 55 cm) and the time until animals descended to the floor was recorded with a maximum duration of 90 s. […] For Cylinder Rearing Test (CRT) the initial forepaw (left, right, or both) preference after placing the mouse in a methacrylate transparent cylinder of 15.5 cm in diameter and 12.7 cm in height was measured. […]

Structure (SMILES): CCCCCC1=C(C(=O)O)C(=O)C(C/C=C(\C)CCC=C(C)C)=C(O)C1=O [I, cannabigerol quinone acid]
- reactive microgliosis (Iba-1+ cells) [1]: prevented the induction of reactive microgliosis
- striatal neurons (Nissl staining) against 3NP toxicity [1]: preservation of striatal neurons
- bradykinesia (pole test) (6-OHDA challenged mice): attenuated
- clinical symptoms in 6-OH-DA challenged mice (6-OHDA challenged mice): alleviates clinical symptoms
- motor deficit (cylinder rearing test) (6-OHDA challenged mice): attenuated
